# Yeast mating assay 1: variants of the scFv Ab-14

Data: MIT Lincoln Laboratory AlphaSeq set, Engelhart et al. 2022, doi:10.1038/s41597-022-01779-4, as distributed in FLAb.

Binding partner: SARS-CoV-2 spike HR2 peptide, sequence PDVDLGDISGINAS.

The variants keep the light chain, the linker and the frameworks of Ab-14 (scFv order VH, three GGGGS repeats, VL).
VH: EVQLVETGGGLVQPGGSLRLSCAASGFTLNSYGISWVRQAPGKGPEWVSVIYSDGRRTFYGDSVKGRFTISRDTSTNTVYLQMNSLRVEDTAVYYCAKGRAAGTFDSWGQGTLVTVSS
VL: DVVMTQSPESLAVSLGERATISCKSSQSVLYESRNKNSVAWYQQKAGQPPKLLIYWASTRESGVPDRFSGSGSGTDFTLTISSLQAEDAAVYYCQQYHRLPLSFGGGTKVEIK

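Phage display of a naive human antibody library on the peptide gave the parent. In library AAYL49, one, two or three CDR residues were substituted; doubles and triples were drawn at random. In AlphaSeq, yeast of one mating type display the scFv and yeast of the other type display the target. Mating (16 h, 30 °C) was followed by selection of diploids and sequencing of their barcodes. Scores were corrected for input abundance and mapped to Kd with protein pairs of known affinity run in the same pool. The assay was run in three technical replicates.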

Positions count from residue 1 of the parent VH; K65W puts W in place of K.
The read-out is the apparent dissociation constant on a log10 scale (nM): the lower, the stronger.
The mean shown is taken over the replicates in which the pair was detected.
An entry "not detected" has no value in the source: the pair was not observed among the diploids in any replicate. This suggests poor binding but is not conclusive.
The list is sorted by this average, lowest first, undetected variants last.
Parent in this assay: reference entry 0.65, copy in this library 4.11 (one replicate of three).
Empty control strains, which show no peptide, gave a signal in 15% of pairings with library AAYL49; the median was 4.06 and 95% of these signals were weaker than 2.83. No background was subtracted.

"mean, log10 nM",replicates with signal,changes
1.84,3 of 3,K65W/D106S
2.04,3 of 3,Y60F/A102E/F105Q
2.53,3 of 3,F59L/Y60C/G61S
2.62,3 of 3,G61S/S63H/K65W
2.91,1 of 3,N30W/D62P/G99M
2.97,1 of 3,F27E/F59E/R100S
3.42,1 of 3,G26Q/L29W/S63N
3.48,3 of 3,L29M/R100A/S107T
3.70,1 of 3,T28L/I51C/D54C
3.92,2 of 3,Y52S/T104H
3.98,1 of 3,S35M/I51S/D106E
3.99,2 of 3,N30E/T58G/A102E
4.02,2 of 3,G33S/S107P
4.55,1 of 3,I51D/G99T/D106G
4.67,1 of 3,I34V/R56V/T104I
4.67,2 of 3,L29G/V50Q/A102V
4.82,2 of 3,I34S/Y52A/T58H
4.88,2 of 3,F27T/S35Y/A102N
5.41,2 of 3,N30R/R57K/G99A
not detected,0 of 3,S35N/Y52D/D62P
not detected,0 of 3,L29P/S35E/Y52C
not detected,0 of 3,T28F/S31F/G103I
not detected,0 of 3,G26K/N30D/G103W
not detected,0 of 3,Y52K/S53I/D106A
not detected,0 of 3,I34V/R57W/K65R
not detected,0 of 3,T28F/S35V/D54S
not detected,0 of 3,Y32E/R100I/T104E
not detected,0 of 3,I51D/R56D/A101P
not detected,0 of 3,I51R/S53K/G99M
not detected,0 of 3,S35Q/F59S/Y60P
not detected,0 of 3,S35N/I51F/G103W
not detected,0 of 3,T28A/I34N/Y52D
not detected,0 of 3,Y52D/S53D/K65L
not detected,0 of 3,Y32H/V50F
not detected,0 of 3,N30R/V50A/D106N
not detected,0 of 3,Y60L/D62F/A102F
not detected,0 of 3,S31V/Y52L/D106G
not detected,0 of 3,D54E/D106L/S107G
not detected,0 of 3,G55W/T58H/F59C
not detected,0 of 3,L29H/Y32F/F105M
not detected,0 of 3,D54K/R56D/T104M
not detected,0 of 3,N30V/I51Y/K65A
not detected,0 of 3,F27K/R57T/S63C
not detected,0 of 3,S31M/S63L/S107Y
not detected,0 of 3,T58Y/D62S/S63T
not detected,0 of 3,N30G/D62H/F105W
not detected,0 of 3,V50D/F59D
not detected,0 of 3,S31E/I34D/A102H

Excerpt, the final 3 entries:

{"changes": "N30G/D62H/F105W", "mean, log10 nM": "not detected", "replicates with signal": "0 of 3"}
{"changes": "V50D/F59D", "mean, log10 nM": "not detected", "replicates with signal": "0 of 3"}
{"changes": "S31E/I34D/A102H", "mean, log10 nM": "not detected", "replicates with signal": "0 of 3"}